Experimental data published in US9266876B2 (Actelion Pharmaceuticals Ltd., priority 2012, dated 2016).

By UniProt entry, the sequences of proteins in these tests, tags left out. Where a name states a change or a piece, a line headed by the entry shows the natural chain unless it says otherwise.
UniProt P49682: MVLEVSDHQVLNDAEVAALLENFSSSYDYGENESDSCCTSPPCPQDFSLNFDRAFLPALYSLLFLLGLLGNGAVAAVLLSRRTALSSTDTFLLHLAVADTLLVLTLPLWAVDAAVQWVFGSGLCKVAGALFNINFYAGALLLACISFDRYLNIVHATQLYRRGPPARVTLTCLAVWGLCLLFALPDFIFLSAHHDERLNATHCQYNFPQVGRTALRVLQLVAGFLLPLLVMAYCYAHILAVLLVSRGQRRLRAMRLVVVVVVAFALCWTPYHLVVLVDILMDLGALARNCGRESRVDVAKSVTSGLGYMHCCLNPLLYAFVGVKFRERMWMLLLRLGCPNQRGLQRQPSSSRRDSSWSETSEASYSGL

Key:
[1] = target: CXCR3 (Homo sapiens (Human), UniProt P49682); assay: Receptor internalization assay; format: cell-based; conditions: human whole blood; final CXCL10 concentration 9 nM; 30 min 37° C.; CXCR3 cell surface expression on CD3 positive cells, flow cytometer
Description: B): Receptor Internalization Assay:
Stock solutions of test compounds are made up at a concentration of 10 mM in DMSO, and serially diluted in PBS containing 0.5% BSA to concentrations required for inhibition dose response curves. Diluted compounds are then mixed with an equal volume of CXCL10 (Peprotech) diluted in PBS. Anticoagulated venous human whole blood is added to the mixture, which is then incubated in a CO2 incubator at 37° C. to allow for ligand mediated receptor internalization (final CXCL10 concentration is 9 nM). After 30′, the blood is mixed with fluorescently labeled CXCR3 and CD3 specific antibodies (Becton Dickinson) and incubated on ice for 10 minutes. Samples are then mixed with BD FACS Lysing Solution (Becton Dickinson) in order to eliminate red blood cells. After washing the cells with PBS containing 0.5% BSA, the samples are then analyzed in a flow cytometer (FACS Canto II, Becton Dickinson). For data analysis using FACSDiva software (Becton Dickinson), the mean fluorescence corresponding to CXCR3 cell surface expression was determined on CD3 positive cells. The program GraphPad Prism is used to fit the data to a single site dose response curve and to calculate IC50 values.

[2] = target: human CXCR3A (Homo sapiens (Human), UniProt P49682); assay: FLIPR assay; format: cell-based; conditions: CHO-K1 cells expressing the human CXCR3A coupled to Galpha(16); CXCL10 agonist 20 nM; Fluo-4-AM fluorescence; mean values if determined several times
Description: The bioactivity of compounds is tested in a fluorometric imaging plate reader (FLIPR: Molecular Devices) using engineered CHO-K1 cells expressing the human CXCR3A coupled to a G protein (Galpha(16)). Cells are plated the day prior to bioassay in F12 medium supplemented with 10% FBS and G418 and hygromycin antibiotics to maintain recombinant selection. At the day of bioassay, cells are washed and dye loaded for one hour with Fluo-4-AM (Invitrogen) in Hanks Balanced Salt Solution (Invitrogen), buffered with 20 mM Hepes at pH 7.4 and sodium bicarbonate (0.015%), containing 5 mM probenecid. […] Cells are washed free of excess dye and 60 microliter of wash buffer is added. Stock solutions of test compounds are made up at a concentration of 10 mM in DMSO, and serially diluted in dilution buffer to concentrations required for inhibition dose response curves. After a 10 minute incubation period at 37° C., 10 microliters of each compound dilution are transferred from a compound plate to the plate containing the recombinant cells in the FLIPR instrument according to the manufacturer's instructions. Following basal readings, 10 microliter CXCL10 agonist at a concentration of 20 nM (from Peprotech) is added, again using the FLIPR instrument. Changes in fluorescence are monitored before and after addition of the test compounds. […]

Work on “1-{(R)-4-[4-(1H-Benzoimidazol-2-yl)-2-trifluoromethyl-thiazol-5-yl]-2-methyl-piperazin-1-yl}-2-(3-phenyl-pyrazol-1-yl)-ethanone [Example 177]” yielded an IC50 [1] of 7.52 µM and an IC50 [2] of 0.003 µM.
